Measured values as given in ChEMBL document CHEMBL5726183, “Geminal substituted quinuclidine amide compounds as agonists of α-7 nicotonic acetylcholine receptors” (2019).

Protein sequences, listed by entry. Tags and fused reporters are not part of them. Residues count along the entry.
UniProt P36544, 23-502 limits assumed: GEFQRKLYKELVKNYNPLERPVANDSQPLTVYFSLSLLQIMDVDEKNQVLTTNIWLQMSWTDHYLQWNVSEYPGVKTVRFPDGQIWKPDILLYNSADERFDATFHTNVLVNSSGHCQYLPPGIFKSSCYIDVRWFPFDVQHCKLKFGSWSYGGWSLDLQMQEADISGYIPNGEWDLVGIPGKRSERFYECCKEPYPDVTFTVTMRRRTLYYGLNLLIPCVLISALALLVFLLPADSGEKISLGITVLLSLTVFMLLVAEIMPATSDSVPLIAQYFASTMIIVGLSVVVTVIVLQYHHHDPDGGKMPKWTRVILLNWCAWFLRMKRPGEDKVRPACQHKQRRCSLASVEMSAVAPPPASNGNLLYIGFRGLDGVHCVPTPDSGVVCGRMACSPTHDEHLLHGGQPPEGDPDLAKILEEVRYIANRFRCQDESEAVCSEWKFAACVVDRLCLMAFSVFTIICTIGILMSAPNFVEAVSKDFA

Target: Neuronal acetylcholine receptor subunit alpha-7 (Homo sapiens, UniProt P36544)

SMILES | Ki
CC1(C)[C@H](NC(=O)c2cc3cccc(C(F)(F)F)c3s2)C2CCN1CC2 | 300 nM
O=C(N[C@@H]1C2CCN(CC2)C12CC2)c1ccc2cc[nH]c2c1 | 240 nM
CC1(C)[C@H](NC(=O)c2cc3ccsc3cn2)C2CCN1CC2 | 480 nM
CC1(C)[C@H](NC(=O)c2cc3cc(F)c(F)cc3s2)C2CCN1CC2 | 2700 nM
O=C(N[C@@H]1C2CCN(CC2)C12CC2)c1ccc2cccnc2c1 | 12000 nM
CC1(c2cccc3cc(C(=O)N[C@@H]4C5CCN(CC5)C4(C)C)sc23)CC1 | 1400 nM
Cc1cc2cc(C(=O)N[C@@H]3C4CCN(CC4)C3(C)C)ccc2o1 | 1300 nM
O=C(N[C@@H]1C2CCN(CC2)C12CC2)c1ccc2occc2n1 | 20000 nM
CC1(C)[C@H](NC(=O)c2cc3ccc(Cl)c(F)c3s2)C2CCN1CC2 | 340 nM
COc1ccc2cc(C(=O)N[C@@H]3C4CCN(CC4)C34CC4)sc2c1F | 780 nM
O=C(N[C@@H]1C2CCN(CC2)C12CC2)c1nc2ccccc2s1 | 1100 nM
O=C(N[C@@H]1C2CCN(CC2)C12CC2)c1nc2ccccc2o1 | 1300 nM
O=C(N[C@@H]1C2CCN(CC2)C12CC2)c1cc2ccc(Cl)c(C(F)(F)F)c2s1 | 310 nM
O=C(NC1C2CCN(CC2)C12CC2)c1cc2cc(Cl)c(Cl)cc2s1 (single isomer, unassigned) | > 30000 nM and 14000 nM
Cc1nc2cc(C(=O)N[C@@H]3C4CCN(CC4)C3(C)C)ccc2s1 | 4600 nM
CC(C)Oc1ccc2cc(C(=O)N[C@@H]3C4CCN(CC4)C3(C)C)sc2c1 | 14000 nM
CC1(C)C(NC(=O)c2ccc(Cl)cc2)C2CCN1CC2 (stereo not drawn) | 3900 nM
CC(C)Oc1cccc2cc(C(=O)N[C@@H]3C4CCN(CC4)C34CC4)sc12 | 220 nM
CC1(C)[C@H](NC(=O)c2ccc3ncccc3c2)C2CCN1CC2 | > 30000 nM
Cc1cc2cc(C(=O)N[C@@H]3C4CCN(CC4)C34CC4)ccc2o1 | 490 nM
Cc1c(Cl)ccc2cc(C(=O)N[C@@H]3C4CCN(CC4)C34CC4)sc12 | 47 nM
CC1(C)[C@H](NC(=O)c2ccc3c(c2)OCCO3)C2CCN1CC2 | 12000 nM

SMILES | Ki
CC1(C)[C@H](NC(=O)c2cc3cccc(-c4ccccc4)c3s2)C2CCN1CC2 | 250 nM
CC1(C)[C@H](NC(=O)c2cc3ccc(C4CC4)c(F)c3s2)C2CCN1CC2 | 2700 nM
CC1(C)[C@H](NC(=O)c2cc3cccc(C#N)c3s2)C2CCN1CC2 | 550 nM
COc1ccc2cc(C(=O)N[C@H]3C4CCN(CC4)C3(C)C)sc2c1 | 14000 nM
O=C(N[C@@H]1C2CCN(CC2)C12CC2)c1cc2ccc(F)c(F)c2s1 | 790 nM
CC(C)(C)c1cccc2cc(C(=O)N[C@@H]3C4CCN(CC4)C34CC4)sc12 | 480 nM
Cc1c(Cl)ccc2cc(C(=O)N[C@@H]3C4CCN(CC4)C3(C)C)sc12 | 92 nM
CCOc1cccc2cc(C(=O)N[C@@H]3C4CCN(CC4)C34CC4)sc12 | 200 nM
O=C(N[C@@H]1C2CCN(CC2)C12CC2)c1ccc(Cl)c(Cl)c1 | 2000 nM
CC1(c2cccc3cc(C(=O)N[C@@H]4C5CCN(CC5)C45CC5)sc23)CC1 | 540 nM
O=C(N[C@@H]1C2CCN(CC2)C12CC2)c1cc2cccnc2s1 | 1500 nM
CC(C)(O)c1cccc2cc(C(=O)N[C@@H]3C4CCN(CC4)C3(C)C)sc12 | 2200 nM
CC(C)Oc1cccc2cc(C(=O)N[C@@H]3C4CCN(CC4)C3(C)C)sc12 | 450 nM
Cc1csc2cc(C(=O)N[C@@H]3C4CCN(CC4)C3(C)C)ccc12 | 9800 nM
O=C(N[C@@H]1C2CCN(CC2)C12CC2)c1cc2ccc(C3COC3)cc2s1 | 11000 nM
COCc1cccc2cc(C(=O)N[C@@H]3C4CCN(CC4)C3(C)C)sc12 | 155 nM
CC1(C)[C@H](NC(=O)c2cc3cc(Cl)ccc3s2)C2CCN1CC2 | 3000 nM
CC1(C)[C@H](NC(=O)c2cc3cccc(N4CCOCC4)c3s2)C2CCN1CC2 | 3500 nM
Cc1ccc2cc(C(=O)N[C@@H]3C4CCN(CC4)C34CC4)sc2c1C1CC1 | 240 nM
Cc1coc2ccc(C(=O)N[C@@H]3C4CCN(CC4)C3(C)C)cc12 | 1100 nM
O=C(NC1C2CCN(CC2)C12CC2)c1cc2cc(C(F)(F)F)ccc2s1 (single isomer, unassigned) | 16000 nM and > 30000 nM
CC1(C)[C@H](NC(=O)c2ccc3sccc3c2)C2CCN1CC2 | 940 nM

SMILES | Ki
Cc1ccc2cc(C(=O)N[C@@H]3C4CCN(CC4)C3(C)C)sc2c1C(F)(F)F | 710 nM
COc1c(C2CC2)ccc2cc(C(=O)N[C@@H]3C4CCN(CC4)C3(C)C)sc12 | 6500 nM
CC(C)c1cccc2cc(C(=O)N[C@@H]3C4CCN(CC4)C3(C)C)sc12 | 500 nM
CCOc1ccc2cc(C(=O)N[C@@H]3C4CCN(CC4)C34CC4)sc2c1 | 1200 nM
CC1(C)[C@@H](NC(=O)c2cc3cccc(Cl)c3s2)C2CCN1CC2 | 3800 nM
O=C(N[C@@H]1C2CCN(CC2)C12CC2)c1nc2ccccc2[nH]1 | 8700 nM
O=C(N[C@@H]1C2CCN(CC2)C12CC2)c1cc2ccc(Cl)c(F)c2s1 | 240 nM
CC1(C)[C@H](NC(=O)c2n[nH]c3ccccc23)C2CCN1CC2 | 570 nM
Cc1ccc2cc(C(=O)N[C@@H]3C4CCN(CC4)C3(C)C)sc2c1F | 380 nM
COc1ccc2cc(C(=O)N[C@@H]3C4CCN(CC4)C3(C)C)sc2c1Cl | 1200 nM
CS(=O)(=O)c1cccc2cc(C(=O)N[C@@H]3C4CCN(CC4)C34CC4)sc12 | 2300 nM
O=C(N[C@@H]1C2CCN(CC2)C12CC2)c1ccc2[nH]ccc2c1 | 4000 nM
CC1(C)[C@H](NC(=O)c2cc3ccc(Cl)c(Cl)c3s2)C2CCN1CC2 | 110 nM
CC1(C)[C@H](NC(=O)c2cc3ccc(C#N)cc3s2)C2CCN1CC2 | 17000 nM
Cc1ccc2cc(C(=O)N[C@@H]3C4CCN(CC4)C3(C)C)sc2c1 | 380 nM
CC1(C)[C@@H](NC(=O)c2cc3ccc(F)cc3s2)C2CCN1CC2 | 22000 nM
Cc1cc2ccc(C(=O)N[C@@H]3C4CCN(CC4)C34CC4)cc2s1 | 160 nM
O=C(N[C@@H]1C2CCN(CC2)C12CC2)c1cc2cccc(N3CCOCC3)c2s1 | 1100 nM
COc1c(Cl)ccc2cc(C(=O)N[C@@H]3C4CCN(CC4)C34CC4)sc12 | 220 nM
CC1(C)[C@H](NC(=O)c2nc3ccccc3o2)C2CCN1CC2 | 2700 nM
O=C(N[C@H]1C2CCN(CC2)C12CC2)c1n[nH]c2ccccc12 | 14000 nM
CC1(C)[C@H](NC(=O)c2noc3ccccc23)C2CCN1CC2 | 12000 nM

SMILES | Ki
CC(C)(O)c1cccc2cc(C(=O)N[C@@H]3C4CCN(CC4)C34CC4)sc12 | 1400 nM
COc1c(F)ccc2cc(C(=O)N[C@@H]3C4CCN(CC4)C3(C)C)sc12 | 570 nM
O=C(N[C@@H]1C2CCN(CC2)C12CC2)c1cc2ccc(C3CC3)c(F)c2s1 | 1200 nM
CC1(C)[C@H](NC(=O)c2cc3cccc(C4CCOCC4)c3s2)C2CCN1CC2 | 1100 nM
Cc1ccc2cc(C(=O)N[C@H]3C4CCN(CC4)C3(C)C)sc2c1 | 14000 nM
Cc1nc2cc(C(=O)N[C@@H]3C4CCN(CC4)C3(C)C)ccc2o1 | 11000 nM
O=C(N[C@@H]1C2CCN(CC2)C12CC2)c1cc2ccc3c(c2s1)OCCC3 | 150 nM
O=C(N[C@@H]1C2CCN(CC2)C12CC2)c1ccc2sccc2c1 | 320 nM
O=C(N[C@@H]1C2CCN(CC2)C12CC2)c1cc2cccc(OC(F)(F)F)c2s1 | 280 nM
Cc1ccc2cc(C(=O)N[C@@H]3C4CCN(CC4)C3(C)C)sc2c1C#N | 640 nM
CC1(C)[C@H](NC(=O)c2ccc3occ(Cl)c3c2)C2CCN1CC2 | 640 nM
CC1(C)[C@H](NC(=O)c2ccc3oc(C4CC4)cc3c2)C2CCN1CC2 | 2200 nM
CC1(C)[C@H](NC(=O)c2cc3cc(F)c(Cl)cc3s2)C2CCN1CC2 | 750 nM
Cn1nc2c(c1-c1cc(F)c(F)c(F)c1)C[C@@H]1CCC[C@H]2N1C(=O)c1cnn2ccncc12 | 3600 nM
Cc1ccc2sc(C(=O)N[C@@H]3C4CCN(CC4)C3(C)C)cc2c1 | 3500 nM
CC1(C)[C@H](NC(=O)c2cc3c(cn2)OCCO3)C2CCN1CC2 | 9600 nM
CCOc1cccc2cc(C(=O)N[C@@H]3C4CCN(CC4)C3(C)C)sc12 | 580 nM
Cc1ccc2cc(C(=O)N[C@@H]3C4CCN(CC4)C3(C)C)sc2c1C1CC1 | 380 nM
CC1(C)[C@H](NC(=O)c2cc3ccc4c(c3s2)CCCO4)C2CCN1CC2 | 180 nM
COc1cc2sc(C(=O)N[C@@H]3C4CCN(CC4)C3(C)C)cc2cc1F | 1600 nM
COc1ccc2cc(C(=O)N[C@@H]3C4CCN(CC4)C3(C)C)sc2c1C(F)(F)F | 8400 nM
CC1(C)[C@H](NC(=O)c2cc3cccc(C4CC4)c3s2)C2CCN1CC2 | 140 nM

SMILES | Ki
COc1cccc2cc(C(=O)N[C@@H]3C4CCN(CC4)C34CC4)sc12 | 58 nM
O=C(N[C@@H]1C2CCN(CC2)C12CC2)c1cc2ccccc2[nH]1 | 810 nM
Cn1ccc2ccc(C(=O)N[C@@H]3C4CCN(CC4)C3(C)C)cc21 | 2000 nM
CC1(C)[C@H](NC(=O)c2cc3ccc(F)c(Cl)c3s2)C2CCN1CC2 | 420 nM
CC1(C)[C@H](NC(=O)c2cc3cccnc3s2)C2CCN1CC2 | 5000 nM
CC1(C)[C@H](NC(=O)c2cc3ccc(C4CC4)c(Cl)c3s2)C2CCN1CC2 | 2500 nM
N#Cc1ccc2cc(C(=O)N[C@@H]3C4CCN(CC4)C34CC4)sc2c1 | 7900 nM
Cc1nc2cc(C(=O)N[C@@H]3C4CCN(CC4)C34CC4)ccc2o1 | 4300 nM
CC1(C)[C@H](NC(=O)c2cc3ccoc3cn2)C2CCN1CC2 | 390 nM
CC1(C)[C@H](NC(=O)c2ccc(Cl)c(Cl)c2)C2CCN1CC2 | 4900 nM
CC1(C)[C@H](NC(=O)c2cc3cc(F)c(Cl)c(F)c3s2)C2CCN1CC2 | 1100 nM
O=C(N[C@@H]1C2CCN(CC2)C12CC2)c1cc2ccsc2cn1 | 400 nM
O=C(N[C@@H]1C2CCN(CC2)C12CC2)c1cc2ccc(Cl)cc2o1 | 860 nM
N#Cc1cccc2cc(C(=O)N[C@@H]3C4CCN(CC4)C34CC4)sc12 | 110 nM
O=C(N[C@@H]1C2CCN(CC2)C12CC2)c1cc2ccoc2cn1 | 250 nM
Cc1ccc2cc(C(=O)N[C@@H]3C4CCN(CC4)C34CC4)sc2c1C#N | 190 nM
CC1(C)[C@H](NC(=O)c2ccc3cc[nH]c3c2)C2CCN1CC2 | 1100 nM
CC1(C)[C@H](NC(=O)c2cc3cc(Cl)c(Cl)cc3s2)C2CCN1CC2 | 25000 nM
Cn1ccc2ccc(C(=O)N[C@@H]3C4CCN(CC4)C34CC4)cc21 | 1500 nM
CC1(C)[C@H](NC(=O)c2cc3ccc(Cl)cc3o2)C2CCN1CC2 | 4000 nM

“And” between values parts separate entries of the source, which are not always exact repeats. Equal values may be shown once.
